## Binding of CDR-mutated scFvs to a peptide of the spike HR2 region

Data: MIT Lincoln Laboratory AlphaSeq set, Engelhart et al. 2022, doi:10.1038/s41597-022-01779-4, as distributed in FLAb.

The target is the same throughout: PDVDLGDISGINAS, from the HR2 region of SARS-CoV-2 spike.

Parent scFv Ab-95: VH joined to VL by three GGGGS repeats. Changes lie in the light chain CDRs alone.
VH: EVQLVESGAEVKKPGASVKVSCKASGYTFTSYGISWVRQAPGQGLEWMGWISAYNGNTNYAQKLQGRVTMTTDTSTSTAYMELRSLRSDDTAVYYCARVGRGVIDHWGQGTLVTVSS
VL: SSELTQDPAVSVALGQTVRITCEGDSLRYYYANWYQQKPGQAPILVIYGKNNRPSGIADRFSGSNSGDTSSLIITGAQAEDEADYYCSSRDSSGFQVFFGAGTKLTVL

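Phage display of a naive human antibody library on the peptide gave the parent. Library AAYL52 holds single substitutions and randomly drawn double and triple substitutions in the CDRs. In AlphaSeq, yeast of one mating type display the scFv and yeast of the other type display the target. The frequency of each diploid, read from paired DNA barcodes, reflects how well the two displayed proteins bind. Read counts were normalised to the haploid input and turned into Kd by a linear fit to BCL2-family pairs of known affinity, for each replicate. Each pool was mated in three replicate cultures.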

Substitutions are numbered in sequence along the VL above, starting at 1 (not Kabat). The read-out is the apparent dissociation constant on a log10 scale (nM): the lower, the stronger. "n.d." means that the variant was in the library but no mating with the target was seen in that replicate; the authors take this as a sign of poor binding, and no number exists. Parent in this assay: reference entry 2.31, copy in this library 2.25. Three control strains display no target. For library AAYL52, 28% of the pairings with them gave a signal, with a median of 3.91 and one signal in twenty below 2.90, so weak values seen in few replicates may be background. Also given: how often the same scFv was detected with the empty control strains, with their mean in brackets.

| # | changes | replicates, log10 nM | control signals |
|---|---|---|---|
| 1 | N51C S89I R90L | n.d. n.d. n.d. | 0 of 9 |
| 2 | R28D A32I R90P | 3.80 2.76 3.00 | 1 of 9 (5.02) |
| 3 | D25Y S26D V97H | 4.53 4.93 4.15 | 5 of 9 (3.66) |
| 4 | G24Q G49N F98V | n.d. n.d. n.d. | 0 of 9 |
| 5 | Y31F N51D S88F | 2.76 2.23 2.21 | 1 of 9 (3.88) |
| 6 | D25M D91L G94C | n.d. 3.63 4.25 | 0 of 9 |
| 7 | N51M P54L S55V | 4.63 5.77 n.d. | 3 of 9 (4.34) |
| 8 | A32F N52A P54W | n.d. 5.93 n.d. | 4 of 9 (3.91) |
| 9 | Y30R K50S G94A | 2.52 1.95 1.46 | 2 of 9 (3.89) |
| 10 | S26Y R28S Y31K | 2.42 1.96 1.73 | 4 of 9 (3.91) |
| 11 | D25V K50A G94H | 3.03 2.92 2.89 | 3 of 9 (3.72) |
| 12 | S92N G94D F95V | 3.32 3.04 4.22 | 2 of 9 (3.53) |
| 13 | S26N L27Y R28A | n.d. n.d. 4.10 | 2 of 9 (3.25) |
| 14 | R28D P54I S89G | 5.05 n.d. n.d. | 2 of 9 (3.89) |
| 15 | S55R S88E F98E | 4.60 n.d. 3.38 | 3 of 9 (4.28) |
| 16 | E23V A32R G94K | n.d. 4.28 3.57 | 2 of 9 (3.58) |
| 17 | Y29G N52I D91S | 1.23 1.26 0.78 | 7 of 9 (4.04) |
| 18 | A32W N33E S89F | 4.19 n.d. n.d. | 4 of 9 (3.41) |
| 19 | L27R S88T | 3.26 n.d. 2.56 | 5 of 9 (3.98) |
| 20 | Y31T K50L R90E | 5.65 4.02 n.d. | 3 of 9 (3.71) |
| 21 | S26V K50A S89N | 3.62 n.d. 4.37 | 3 of 9 (3.63) |
| 22 | E23I G24E G94F | 2.86 n.d. n.d. | 2 of 9 (4.17) |
| 23 | G49Y N51K G94M | 4.07 n.d. n.d. | 0 of 9 |
| 24 | Y29W A32I R90L | 3.55 5.45 2.76 | 2 of 9 (3.67) |
| 25 | S88E S89K F95I | 2.01 3.33 3.27 | 2 of 9 (4.81) |
| 26 | P54D S55K S93V | 3.44 5.75 4.46 | 2 of 9 (3.95) |
| 27 | E23N Y31G Q96P | 2.29 2.09 1.81 | 7 of 9 (4.02) |
| 28 | A32Y N51H S88V | n.d. n.d. n.d. | 0 of 9 |
| 29 | R53Y S88P F98A | 4.40 n.d. n.d. | 2 of 9 (4.41) |
| 30 | G24L S92Q F95M | 2.64 3.64 n.d. | 0 of 9 |
| 31 | Y31Q N33K R90D | 5.29 n.d. n.d. | 0 of 9 |
| 32 | L27N K50F N51G | 4.06 4.53 3.33 | 3 of 9 (3.86) |

The 3 strongest on average among those seen in every replicate, once more:

changes,"replicates, log10 nM",control signals
Y29G N52I D91S,1.23 1.26 0.78,7 of 9 (4.04)
Y30R K50S G94A,2.52 1.95 1.46,2 of 9 (3.89)
S26Y R28S Y31K,2.42 1.96 1.73,4 of 9 (3.91)